Literature values, collected in patent publication US20060093597A1, “Methods of treating involuntary facial spasms and facial wrinkles” (priority 2002, published 2006).

Tested on: nerve-evoked twitch response
Conditions: reversed by neostigmine; cited from earlier work

For coryneine, the “concentration that blocked the nerve-evoked twitch response” value is given as 20 to 150 µM.
